# Patent US20110319384A1, “Pharmaceutical Compositions” (priority 2005, published 2011)
# System: patients suffering from psychotic depression
# [1] = all 24 patients between 5 and 7 at start
smiles,measurement,setting,value
"OCCOCCN1CCN(C2=Nc3ccccc3Sc3ccccc32)CC1 [quetiapine, 11-[4-[2-(2-hydroxyethoxy)ethyl]-1-piperazinyl]-dibenzo[b,f][1,4]thiazepine]",mean BPRS score at Week 6,add-on to citalopram,about 31
same,mean BPRS score at baseline,add-on to citalopram,about 59
same,mean HAM-D21 score after 6 weeks,add-on to citalopram,about 10
same,mean HAM-D21 score at baseline,add-on to citalopram,about 31
same,mean decrease in BPRS score from baseline to Week 6,add-on to citalopram,about 28
same,mean decrease from baseline in HAM-D21 scores,"after 6 weeks, quetiapine 50-750 mg/day add-on to citalopram 20-60 mg/day",about 21
same,patients rated CGI severity 5 at study end,[1],4 patients
same,patients rated CGI severity 6 at study end,[1],1 patient
same,mean weight gain,in vivo,< 1 kg
same,number of mild AEs,in vivo,Twenty-five
same,number of moderate AEs,in vivo,9 AEs
same,patients who experienced at least 1 AE,in vivo,12 patients
same,serious adverse events (SAEs),in vivo,no serious adverse events
same,"abnormal initial values for serum prolactin, EPS, or UKU side effects",most values,normalized by the end of the study
